Values after ≈ are worked out from the molar mass of the structure shown.
Tests used:
[1] = system: E. coli MG1655; experiment: MIC assay, broth microdilution, aerobic growth; assay type: cell-based; details: E. coli MG1655, EZRDM, 30°C, 6 hr, two-fold serial dilutions, reproducible to the same factor of two
Experimental: (§1) We have measured MICs in aerobic and anaerobic fermentation conditions using a series of two-fold dilutions for the four natural AMPs in the same rich, chemically defined EZRDM medium at 30°C (Table 1). The MIC in anaerobic fermentation conditions is 4-fold higher for LL-37 and 8-fold higher for melittin. […] For cecropin A and for indolicidin, the MIC is the same in aerobic and fermentation conditions. Evidently the activity against E. coli of some, but not all, natural AMPs is enhanced by the presence of oxygen. For LL-37, the primary focus of this study, we also measured the MIC in conditions enabling anaerobic respiration (no oxygen, but supplemented with 10 mM KNO3; Table 2).
The aerobic MIC values for the various AMPs (Table 1) were determined using the broth microdilution method as previously described. Two-fold serial dilutions of LL-37 in 1× EZRDM were performed in separate rows of a polystyrene 96-well plate, with each plate containing an inoculum of E. coli MG1655. The inoculum was a 1:20 dilution from a bulk culture at midlog phase (OD600 = 0.5) grown at 30°C. The plate was incubated at 30°C and shaken at 200 rpm in a Lab-Line Orbital Environ Shaker (model 3527) for 6 hr. The MIC value was taken as the lowest concentration for which no growth was discernible (<0.05 OD) after 6 hr.

[2] = system: E. coli MG1655; experiment: MIC assay, anaerobic fermentation (oxygen scavenged with PCA/PCD); assay type: cell-based; details: E. coli MG1655, EZRDM, 30°C, 6 hr, PCA 10 mM / PCD 100 nM
Experimental: as §1
Anaerobic MIC values (Table 1) were measured on a 96-well plate that was sealed with plastic wrap. Cells were incubated in EZRDM containing protocatechuic acid (PCA) at 10 mM and protocatechuate 3,4-dioxygenase (PCD) at 100 nM to scavenge oxygen. The plate was incubated at 30°C for 6 hr, followed by OD measurements.

Question: `CC[C@H](C)[C@H](NC(=O)CN)C(=O)NCC(=O)N[C@@H](C)C(=O)N[C@H](C(=O)N[C@@H](CC(C)C)C(=O)N[C@@H](CCCCN)C(=O)N[C@H](C(=O)N[C@@H](CC(C)C)C(=O)N[C@H](C(=O)N[C@H](C(=O)NCC(=O)N[C@@H](CC(C)C)C(=O)N1CCC[C@H]1C(=O)N[C@@H](C)C(=O)N[C@@H](CC(C)C)C(=O)N[C@H](C(=O)N[C@@H](CO)C(=O)N[C@@H](Cc1c[nH]c2ccccc12)C(=O)N[C@H](C(=O)N[C@@H](CCCCN)C(=O)N[C@@H](CCCNC(=N)N)C(=O)N[C@@H](CCCCN)C(=O)N[C@@H](CCCNC(=N)N)C(=O)N[C@@H](CCC(N)=O)C(=O)N[C@@H](CCC(N)=O)C(N)=O)[C@@H](C)CC)[C@@H](C)CC)[C@@H](C)O)[C@@H](C)O)C(C)C)C(C)C` [Melittin] was tested. Which “MIC (μM) Aerobic” value [1] did it give?
Answer: 5 µM (≈ 14.2 µg/mL)

Question: And the “MIC (μM) Fermentation” value [2]?
Answer: 40 µM (≈ 114 µg/mL)

— paper PMC5509375, “Oxidative stress induced in E. coli by the human antimicrobial peptide LL-37” (PLoS Pathogens, 2017)
